Results on one compound are retold here after the NIST ThermoML archive (doi:10.1016/j.jct.2004.05.009).

Numbers after ± are expanded uncertainties.

The conditions of this series: 182.33 K; Liquid.

For the compound `CCl` [chloromethane], the vapor or sublimation pressure (usually the equilibrium pressure above the liquid or solid) came out at 1.67 ± 0.11 kPa.
